{
  "source": "patent US10130604B2",
  "about": "“Composition and method for treating neurodegenerative disease” (priority 2012, dated 2018)",
  "key": {"DJ-1 [1]": {"tested_on": "DJ-1"}, "DJ-1 [2]": {"tested_on": "DJ-1", "settings": "N27 cells, two days treatment, Western blot"}, "α-synuclein [3]": {"tested_on": "α-synuclein"}, "human α-synuclein": {"tested_on": "human α-synuclein", "settings": "LB509 immunostaining"}, "DJ-1 [4]": {"tested_on": "DJ-1", "remark": "listed apart in the source"}, "DJ-1 [5]": {"tested_on": "DJ-1", "settings": "HEK293 reporter cells, 48 hr treatment"}, "α-synuclein [6]": {"tested_on": "α-synuclein", "settings": "C57BL/6 mice, drinking water, two weeks"}, "DJ-1 [7]": {"tested_on": "DJ-1", "settings": "vs age-matched mice without PB"}},
  "note": "Like-named read-outs stand apart in the source and are kept apart here.",
  "data": [
    {"smiles": "O=C([O-])CCCc1ccccc1.[Na+]", "note": "[sodium phenylbutyrate]", "values": [
      {"measurement": "brain DJ-1 levels", "setting": "DJ-1 [1]; C57BL/6 mice, drinking water, two weeks, vs control", "value": "significantly increased DJ-1 levels"},
      {"measurement": "time course of brain DJ-1 during chronic administration", "setting": "DJ-1 [1]; drinking water for 1, 2 and 3 months, data not shown", "value": "reached plateau values after two weeks"},
      {"measurement": "increase in brain DJ-1 levels", "setting": "DJ-1 [1]; mice", "value": 260, "unit": "%"},
      {"measurement": "DJ-1 protein levels", "setting": "DJ-1 [2]", "value": "300 % of control"},
      {"measurement": "α-synuclein oligomer accumulation in brain, 10-month old Young transgenic animals", "setting": "α-synuclein [3]; Western blot", "value": "minimal"},
      {"measurement": "α-synuclein oligomer formation in brain, 15-month old transgenic mouse", "setting": "α-synuclein [3]; cortex, striatum and hippocampus, Western blot", "value": "dramatically reduced oligomer formation"},
      {"measurement": "ratio of α-synuclein oligomer to monomer, old transgenic mice", "setting": "α-synuclein [3]; vs Old w/o PB", "value": "dramatically reduced"},
      {"measurement": "number of neurons with Lewy body-like inclusions, young mice", "setting": "human α-synuclein", "value": "little effect"},
      {"measurement": "number of neurons with Lewy body-like inclusions, old mice", "setting": "human α-synuclein; vs vehicle", "value": "greatly reduced the number of neurons with Lewy body-like inclusions"},
      {"measurement": "DJ-1 gene expression, combination with A53T", "setting": "DJ-1 [4]; A53T mutant human alpha-synuclein overexpression, vs A53T alone", "value": "even greater increase"},
      {"measurement": "increase in DJ-1 mRNA", "setting": "DJ-1 [4]; N27 dopamine neurons, phenylbutyrate alone", "value": 50, "unit": "fold"},
      {"measurement": "increase in DJ-1 mRNA, combination with H2O2", "setting": "DJ-1 [4]; pretreated 48 hours, then H2O2", "value": 256, "unit": "fold"},
      {"measurement": "DJ-1 protein levels", "setting": "DJ-1 [5]", "value": "increased"},
      {"measurement": "α-synuclein concentrations in brain", "setting": "α-synuclein [6]", "value": "not changed"},
      {"measurement": "brain DJ-1 protein levels, young and old transgenic mice", "setting": "DJ-1 [7]", "value": "significantly increased"}
    ]}
  ]
}
